# Reference: patent publication US11759451B2, “Therapeutic potential of glycopyrrolate and mexiletine for nervous system injury” (City University of Hong Kong, priority 2020, dated 2023)
# System: optic nerve crush injury
# Conditions: intravitreal 1 μg weekly plus i.p. 2 mg/kg daily for 7 days
smiles,measurement,setting,value
C[N+]1(C)CCC(OC(=O)C(O)(c2ccccc2)C2CCCC2)C1 (centres unmarked) [glycopyrrolate],increase in the number of CTB-labelled regenerating axons at 2 mm distal to the lesion site,"4 weeks after optic nerve crush, vs vehicle controls",more than 70 fold
same,increase in the number of CTB-labelled regenerating axons extending 1.0 mm from the site of injury,"14 days after optic nerve crush, vs saline vehicle",more than 17 fold
